Values of other authors, collected in patent US20250085295A1, “METHODS FOR MEASURING INTERACTIONS BETWEEN PROTEINS COMPRISING AN FC PORTION AND PARTICLES” (NANOTEMPER TECHNOLOGIES GMBH, priority 2023, published 2025).

Biological target: IgA antibody
Conditions: literature DOI cited; read-out: affinity of Fc-binding peptide to IgA antibody; cited from earlier work

Sequence	Kd [nM]
HMVCLAYRGRPVCFAL	33
HMVCLSYRGRPVCFSL	16
